Test system: rFX
Assay: FX activity by FX-Coatest-Kit (RVV activation, chromogenic substrate S-2337)
Format: biochemical, human
Details: incubated with CHO supernatants (without r-furin), up to 6 hours
Procedure: d. Activity of the in vitro-processed CHO-rFX The supernatants from the experiment mentioned under c.) subsequently were tested for FX activity by means of FX-Coatest-Kit (from Chromogenix). For this, 50 μl of each supernatant were admixed with 50 μl of FX-deficient human plasma, and according to the protocol of the producer, rFX was reacted to rFXa with snake venom (RVV) in the presence of CaCl2; rFXa subsequently hydrolyses the chromogenic substrate (S-2337) and leads to the liberation of the yellow-coloured paranitroaniline. Since the amount of rFXa and the colour intensity are proportional to each other, the amount of rFX activatable to rFXa/ml cell culture supernatant can be determined with the help of a calibration straight line, interpolated from values of the plasma dilution series. […]

Substance: CHO-rFX: recombinant human factor X expressed in CHO cells, cell culture supernatant
- functional rFX: 19-25%
- rFXa activity: 150-200 mU/ml

From patent US6210929A, “Fusion protein comprising a furin derivative or a derivative of a furin analogue and a heterologous sequence” (Baxter Aktiengesellschaft, priority 1995, dated 2001)
